Earlier results in PMC7476584, “Lipophilicity trends upon fluorination of isopropyl, cyclopropyl and 3-oxetanyl groups” (Beilstein Journal of Organic Chemistry, 2020).

Conditions: reference compound in the 19F NMR method; ref not specified; cited from earlier work

2-fluoroethan-1-ol
logP of reference compound (known value): -0.75
